Measured values from patent US9345691B2, “Beta-lactam compounds for enhancing T cell-mediated immune responses” (STEM CELL MEDICINE LTD., priority 2011, dated 2016).

What was measured:
[1] = system: encephalitogenic BP10 T-cell line; experiment: Adoptive EAE by BP10 line stimulated in vitro with test substance; type: in vivo, rat; conditions: BP10 line stimulated 3 days with 5 mg/ml in stimulation medium
Excerpt: The ability of a compound to enhance T cell activity may be determined, for example, using an in vivo assay testing the effect of a given compound on the severity of adoptive (passive) EAE, namely, EAE which is induced by the injection of activated encephalitogenic T cell line to the model animal. In order to test a compound, the encephalitogenic T cells are activated in the presence of the compound prior to injection. An exemplary procedure is described in the Examples section hereinbelow. Compounds whose incubation with the encephalitogenic T cells prior to injection results in an increased disease severity compared to a disease induced by T cells that were not incubated with the test compound, may be suitable for use according to embodiments of the present invention.
Antigen-specific T-cell lines were established from lymph node cells that had been stimulated with myelin basic protein (MBP; 10 μg/ml) for 3 days in stimulation medium as described below. Following stimulation, the T-cell blasts were isolated on Lympho-prep (Nycomed Pharma, Oslo, Norway) and seeded in propagation medium. Propagation medium was identical to stimulation medium without autologous serum, but supplemented with fetal calf serum 10% and T-cell growth factors from the supernatant of Con A stimulated spleen cells 10% (Mor et al. (1990) J Clin Invest, 85, 1594-1598). Animals were injected intra-peritoneally with 10^7 MBP-stimulated T cells, following 6-8 cycles of in vitro stimulations. It is known that MBP-reactive lines undergo a reduction in pathogenicity after 6 or more in vitro stimulations. In some experiments the BP10 line was stimulated with phorbol myristate acetate (PMA; 50 ng/ml) and ionomycin (500 ng/ml) for 3 days in stimulation medium, without antigen-presenting cells. […]
Treatment with cefuroxime in vivo could affect many different host agents involved in EAE or AA as well as influencing the rats' bacterial flora. […] The activated T cells were then washed to remove the antibiotic, the T cells were injected intra-peritoneally into naïve recipient rats (10^7 per rat), and EAE was scored. […]

human CD4 T cells = experiment: Uptake of penicillin-modified albumin by T cells; type: cell-based
Procedure: To test whether penicillin-modified albumin can enter T cells, human serum albumin was incubated with penicillin, and then dialysed extensively. The resulting penicillin-modified-albumin was incubated with purified human CD4 T cells for 3 hours, and the cells were lysed and tested by western blot with monoclonal Pen 9 antibody. T cells were harvested after 1, 2, or 3 hrs. Cytoplasmic (“Cyto”) and nuclear (“Nucl”) fractions were run on SDS transferred to nitrocellulose and tested with Pen 9 antibody. […] Cytoplasmic and nuclear penicillin-labeled-albumin was seen after 1 hr, and peaked at 3 hr.

Substance	severity of adoptive EAE (pathogenicity of BP10 line) [1]	severity of adoptive EAE (pathogenicity of BP10 line) ([1]; listed as Penicillin-modified albumin)	nuclear entry upon T cell activation (human CD4 T cells; T cell activation for 1 hr with PMA and Ionomycin)	time to detection in the nuclei (human CD4 T cells; purified human CD4 T cells, Pen 9 western blot of nuclear fraction) [h]	time of peak of cytoplasmic and nuclear penicillin-labeled-albumin (human CD4 T cells; purified human CD4 T cells, harvested after 1, 2 or 3 hrs) [h]
unmodified human albumin: human albumin not incubated with penicillin, control protein	no significant effect				
penicillin-modified albumin: human serum albumin incubated with penicillin, then dialysed extensively	enhanced the pathogenicity of the T cells	augments the pathogenicity of BP10 line	augmented	≤ 1	3
